# Assay results as given in PubChem BioAssay (Tox21).
# Protein sequences, listed by entry. Tags and fused reporters are not part of them. Lines headed by an entry give the natural chain unless they say otherwise; changes in a name come on top.
# UniProt Q12809: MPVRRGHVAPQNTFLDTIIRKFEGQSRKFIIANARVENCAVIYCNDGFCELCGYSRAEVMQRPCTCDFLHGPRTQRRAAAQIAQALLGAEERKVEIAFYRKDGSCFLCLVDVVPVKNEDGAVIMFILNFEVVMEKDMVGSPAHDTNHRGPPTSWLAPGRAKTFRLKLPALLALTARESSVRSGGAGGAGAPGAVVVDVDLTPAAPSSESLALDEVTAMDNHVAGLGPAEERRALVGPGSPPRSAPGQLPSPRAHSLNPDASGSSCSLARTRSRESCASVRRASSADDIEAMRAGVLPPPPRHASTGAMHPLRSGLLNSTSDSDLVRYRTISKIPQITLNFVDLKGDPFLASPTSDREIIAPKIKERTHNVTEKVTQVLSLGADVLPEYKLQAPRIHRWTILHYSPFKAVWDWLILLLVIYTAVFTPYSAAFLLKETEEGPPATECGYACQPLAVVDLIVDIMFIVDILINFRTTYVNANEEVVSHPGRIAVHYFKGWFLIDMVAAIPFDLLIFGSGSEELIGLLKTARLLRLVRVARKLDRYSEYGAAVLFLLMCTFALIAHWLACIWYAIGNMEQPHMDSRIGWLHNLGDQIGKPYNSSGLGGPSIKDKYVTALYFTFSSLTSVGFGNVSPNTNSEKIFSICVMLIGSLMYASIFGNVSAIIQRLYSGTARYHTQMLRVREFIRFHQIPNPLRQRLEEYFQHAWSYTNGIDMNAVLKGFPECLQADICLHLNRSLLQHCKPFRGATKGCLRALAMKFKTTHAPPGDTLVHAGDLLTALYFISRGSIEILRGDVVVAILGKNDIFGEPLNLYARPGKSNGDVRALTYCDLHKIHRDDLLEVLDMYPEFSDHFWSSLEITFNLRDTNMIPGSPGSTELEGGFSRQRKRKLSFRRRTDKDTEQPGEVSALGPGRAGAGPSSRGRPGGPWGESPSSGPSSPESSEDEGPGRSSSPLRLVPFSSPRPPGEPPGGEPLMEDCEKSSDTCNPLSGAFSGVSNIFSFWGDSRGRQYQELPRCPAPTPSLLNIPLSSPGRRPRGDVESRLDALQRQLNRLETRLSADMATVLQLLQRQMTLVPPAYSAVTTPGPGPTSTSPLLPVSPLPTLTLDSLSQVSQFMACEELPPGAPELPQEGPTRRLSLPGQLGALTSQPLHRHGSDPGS
# UniProt P03372, whole entry, looked up: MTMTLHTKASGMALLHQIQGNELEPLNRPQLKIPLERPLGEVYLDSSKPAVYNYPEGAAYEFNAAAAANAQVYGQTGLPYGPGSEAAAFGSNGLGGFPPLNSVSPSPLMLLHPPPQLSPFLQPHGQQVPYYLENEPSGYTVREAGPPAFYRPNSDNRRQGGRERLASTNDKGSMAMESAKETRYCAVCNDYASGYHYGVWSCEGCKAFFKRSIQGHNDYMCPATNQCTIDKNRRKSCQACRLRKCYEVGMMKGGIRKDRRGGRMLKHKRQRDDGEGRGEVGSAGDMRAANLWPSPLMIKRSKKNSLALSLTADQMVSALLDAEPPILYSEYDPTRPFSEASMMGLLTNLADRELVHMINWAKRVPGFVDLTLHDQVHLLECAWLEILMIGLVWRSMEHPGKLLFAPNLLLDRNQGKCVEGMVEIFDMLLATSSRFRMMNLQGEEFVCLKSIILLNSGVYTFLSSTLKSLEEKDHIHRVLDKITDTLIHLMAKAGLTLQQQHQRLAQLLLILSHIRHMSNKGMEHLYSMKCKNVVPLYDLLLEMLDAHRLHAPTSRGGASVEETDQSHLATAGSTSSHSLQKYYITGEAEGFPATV
# UniProt Q96RI1: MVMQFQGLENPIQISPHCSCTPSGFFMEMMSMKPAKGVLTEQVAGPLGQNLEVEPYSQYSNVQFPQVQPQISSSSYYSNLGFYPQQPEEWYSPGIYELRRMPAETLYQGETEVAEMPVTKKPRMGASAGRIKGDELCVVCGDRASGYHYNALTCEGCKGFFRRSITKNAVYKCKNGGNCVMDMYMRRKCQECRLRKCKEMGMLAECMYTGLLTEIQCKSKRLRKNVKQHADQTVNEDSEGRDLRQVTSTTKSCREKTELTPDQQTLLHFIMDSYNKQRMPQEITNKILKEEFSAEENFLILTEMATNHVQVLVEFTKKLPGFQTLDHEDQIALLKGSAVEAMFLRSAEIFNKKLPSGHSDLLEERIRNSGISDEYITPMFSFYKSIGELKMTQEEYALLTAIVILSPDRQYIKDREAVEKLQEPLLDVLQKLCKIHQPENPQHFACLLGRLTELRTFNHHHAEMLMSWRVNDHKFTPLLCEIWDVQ
# Several values for one entry are separate records, joined by “and”; a condition that tells them apart may be missing. Where a call stands in place of a potency, no number is given. Equal entries are not always repeated. For part of these data: This list holds what a sample rich in hits left over. The entries are a selection whose mix differs from that of the whole data set. Some compounds were tested as several samples or in several runs, with calls that do not always agree. Activity calls are given as the source filed them. Unless noted, calls follow the shape of the dose curve; as a rule, active = well fitted curve in the direction sought with a large enough effect in the repeat runs; inconclusive = weak or mixed curves; inactive = no such curve, though single readings can be large; an effect the other way counts as inactive or inconclusive.
# Tests used:
# [1] = molecular target: Nuclear receptor subfamily 1 group I member 2 (Homo sapiens) (UniProt O75469); test: Human pregnane X receptor (PXR) small molecule agonists, qHTS assay (AID 1346982); details: PXR-Luc HepG2, CYP3A4 luciferase reporter, 24 h; series mostly up to 42.5 µM; also: nearly all actives have a fitted effect of over 35% in size; also: potency is read from the fitted curve at half-maximal effect
# Outline: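 PXR-Luc HepG2 cells (CYP3A4 promoter-driven luciferase) were seeded in medium with 5% charcoal-stripped FBS, left 5 hr at 37 C, then exposed to compounds in DMSO for 24 hr. Luminescence was read after ONE-Glo addition.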
# [2] = molecular target: Nuclear receptor subfamily 1 group I member 2 (Homo sapiens) (UniProt O75469); test: CYP3A4 induction through human pregnane X receptor (PXR) by small molecules, qHTS assay (AID 1346984); details: DPX-2 HepG2 PXR, CYP3A4-luciferin luminescence, 24 h; series mostly up to 46.1 µM; also: nearly all actives have a fitted effect of over 40% in size
# Outline: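 DPX-2 cells (HepG2 co-transfected with PXR and CYP3A4 promoter-luciferase) treated with compounds 24 h at 37C; luciferin-IPA CYP3A4 substrate 3uM final added for 3 h, then One-Glo; luminescence read. qHTS format.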
# [3] = molecular target: Nuclear receptor subfamily 1 group I member 2 (Homo sapiens) (UniProt O75469); test: Human pregnane X receptor (PXR) activation by small molecules, qHTS assay (AID 1346985); details: DPX-2 HepG2 CYP3A4-luciferase, 24 h; series mostly up to 38.3 µM; also: nearly all actives have a fitted effect of over 40% in size; also: potency is read from the fitted curve at half-maximal effect
# [4] = molecular target: Voltage-gated inwardly rectifying potassium channel KCNH2 (Homo sapiens) (UniProt Q12809); test: Human Ether-a-go-go-Related Gene (hERG) channel small molecule antagonists: fluorescence cell-based qHTS assay (AID 1671200); details: hERG-U2OS cells, FluxOR thallium flux fluorescence; also: potency is read from the fitted curve at half-maximal effect; nearly all actives have a fitted effect of over 50% in size
# Outline: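 Cell line hERG-U2OS; dye FluxOR II, 1 h RT dark; Tl+ stimulus; ex 480/em 540 nm, read each second for 2 min.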
# [5] = molecular target: Estrogen receptor (Homo sapiens) (UniProt P03372); test: qHTS assay to identify small molecule antagonists of the estrogen receptor alpha (ER-alpha) signaling pathway (AID 743069; active = well fitted curve in the direction sought with a large enough effect in the signal ratio in the repeat runs, not every such curve was filed as active; inconclusive = weak or mixed curves, or effect the other way; inactive = no such curve, though single readings can be large or run the other way; the % refers to the signal ratio); details: HEK293 ER-alpha-UAS-bla, beta-lactamase ratio, antagonist mode; series mostly up to 69.4 µM
# [6] = molecular target: Estrogen receptor (Homo sapiens) (UniProt P03372); test: qHTS assay to identify small molecule agonists of the estrogen receptor alpha (ER-alpha) signaling pathway (AID 743075; calls by dose curve;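 also: HEK293 GripTite cells with ER-alpha and UAS-driven beta-lactamase reporter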; also: potency is read from the fitted curve at half-maximal effect); details: HEK293 ER-alpha-UAS-bla, beta-lactamase FRET ratio, 18 h; series mostly up to 70.1 µM
# [7] = molecular target: Bile acid receptor (Homo sapiens) (UniProt Q96RI1); test: qHTS assay to identify small molecule antagonists of the farnesoid-X-receptor (FXR) signaling pathway (AID 743217; active = well fitted inhibition curve with a large enough effect in the signal ratio in the repeat runs, not every such curve was filed as active; inconclusive = weak or mixed curves, or effect the other way; inactive = no such curve, though single readings can be large or run the other way; the % refers to the signal ratio); details: HEK293T FXR-UAS-bla, beta-lactamase ratio, CDCA-stimulated, 16 h
# Outline: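 FXR-UAS-bla HEK 293T cells pre-incubated 5 h at 37 °C, then exposed to compounds with chenodeoxycholic acid (50 uM final) for 16 h at 37 °C. Beta-lactamase reporter read by LiveBLAzer B/G FRET substrate fluorescence after 2 h at room temperature.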
# [8] = molecular target: Bile acid receptor (Homo sapiens) (UniProt Q96RI1); test: qHTS assay to identify small molecule agonists of the farnesoid-X-receptor (FXR) signaling pathway (AID 743220; active = well fitted activation curve with a large enough effect in the signal ratio in the repeat runs, not every such curve was filed as active; inconclusive = weak or mixed curves, or effect the other way; the % refers to the signal ratio); details: HEK293T FXR-UAS-bla, beta-lactamase FRET ratio, 16 h
# [9] = qHTS assay for small molecule disruptors of the mitochondrial membrane potential (AID 720635); details: HepG2 mitochondrial membrane potential, Mito-MPS dye ratio; at 83.2 µM (top of the series)
# Outline: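 HepG2 cells exposed to compound 1 hr at 37C, then Mito-MPS dye 30 min. Ratio read of aggregate (540/590 nm) versus monomer (490/535 nm) fluorescence.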
structure (smiles),measurement,setting,value
Cc1ncc[nH]1,Potency,[1],inactive
same,Potency,[2],inactive
same,Potency,[3],inactive
C=CCSCC1Nc2cc(Cl)c(S(N)(=O)=O)cc2S(=O)(=O)N1 (centres undefined),Potency,[1],inactive
same,Potency,[2],inactive
same,Potency,[3],inactive
CN1C(=O)CC[C@H]1c1cccnc1,Potency,[1],inactive
same,Potency,[2],inactive
same,Potency,[3],inactive
CCOC(=O)[C@H](CCc1ccccc1)N[C@@H](C)C(=O)N1CCC[C@H]1C(=O)O,Potency,[1],inactive
same,Potency,[2],inactive
same,Potency,[3],inactive
CCCCOCCOCCOCc1cc2c(cc1CCC)OCO2,Potency,[1],active: 4.92 µM and active: 11.9 µM
same,Potency,[2],inactive
same,Potency,[3],inactive
CN1CCCCC1CCN1c2ccccc2Sc2ccc(S(C)=O)cc21 (centres undefined),Potency,[4],active: 6.01 µM
CN1CCN(CCCN2c3ccccc3Sc3ccc(C(F)(F)F)cc32)CC1,Potency,[1],inactive
same,Potency,[3],active: 28.2 µM
CCNC(=O)[C@@H]1CCCN1C(=O)[C@H](CCCN=C(N)N)NC(=O)[C@H](CC(C)C)NC(=O)[C@@H](CC(C)C)NC(=O)[C@H](Cc1ccc(O)cc1)NC(=O)[C@H](CO)NC(=O)[C@H](Cc1c[nH]c2ccccc12)NC(=O)[C@H](Cc1cnc[nH]1)NC(=O)[C@@H]1CCC(=O)N1,Potency,[5],inactive
same,Potency,[6],inactive
NC(=O)CC[C@@H]1NC(=O)[C@H](Cc2ccccc2)NC(=O)[C@H](Cc2ccc(O)cc2)NC(=O)[C@@H](N)CSSC[C@@H](C(=O)N2CCC[C@H]2C(=O)N[C@@H](CCCN=C(N)N)C(=O)NCC(N)=O)NC(=O)[C@H](CC(N)=O)NC1=O,Potency,[5],inactive
same,Potency,[6],active: 8.49 µM [inconclusive] and inactive
NS(=O)(=O)Cc1noc2ccccc12,Potency,[1],inactive
same,Potency,[2],inactive
same,Potency,[3],inactive
COc1c2occc2c(OC)c2c(=O)cc(C)oc12,Potency,[1],inactive
same,Potency,[2],inactive
same,Potency,[3],inactive
CC(O)CO (centres undefined),"activity change, negative = inhibition",[7]; at 5.95 µM (top of the series),inactive: 2.93%
same,"activity change, negative = inhibition",[7]; at 62.6 µM (top of the series),inactive: 9.9%
same,activation,[8]; at 5.95 µM (top of the series),inactive: 1.35%
same,activation,[8]; at 62.6 µM (top of the series),inactive: -2.74% and inactive: 0.524%
C1CCC(C(CC2CCCCN2)C2CCCCC2)CC1 (centres undefined),Potency,[4],active: 8.49 µM
CC(C)C[C@H](NC(=O)[C@@H](COC(C)(C)C)NC(=O)[C@H](Cc1ccc(O)cc1)NC(=O)[C@H](CO)NC(=O)[C@H](Cc1c[nH]c2ccccc12)NC(=O)[C@H](Cc1cnc[nH]1)NC(=O)[C@@H]1CCC(=O)N1)C(=O)N[C@@H](CCCN=C(N)N)C(=O)N1CCC[C@H]1C(=O)NNC(N)=O,Potency,[5],inactive
same,Potency,[6],inactive
COc1ccc(C[C@H](C)NC[C@@H](O)c2ccc(O)c(NC=O)c2)cc1,"ratio activity, negative = MMP loss",[9],inactive: 15%
CC1(C)[C@@H](OC(=O)CCC(=O)O)CC[C@]2(C)[C@H]3C(=O)C=C4[C@@H]5C[C@@](C)(C(=O)O)CC[C@]5(C)CC[C@@]4(C)[C@]3(C)CC[C@@H]12,Potency,[1],inactive
same,Potency,[2],inactive
same,Potency,[3],inactive
CC(C)(C)c1ccc(C(=O)CCCN2CCC(OC(c3ccccc3)c3ccccc3)CC2)cc1,Potency,[3],inactive
CN(C)CCC[C@@]1(c2ccc(F)cc2)OCc2cc(C#N)ccc21,"activity change, negative = inhibition",[7]; at 62.6 µM (top of the series),inactive: -13.3%
COCCCOc1ccnc(CS(=O)c2nc3ccccc3[nH]2)c1C (centres undefined),Potency,[1],active: 7.66 µM
same,Potency,[2],inactive
same,Potency,[3],active: 12.6 µM
CC(C(=O)O)c1ccc(C(=O)c2cccs2)cc1 (centres undefined),Potency,[1],inactive
same,Potency,[2],inactive
same,Potency,[3],inactive
NCCNCCNCCN,Potency,[1],inactive
same,Potency,[2],inactive
same,Potency,[3],inactive
C[C@H]1C[C@H]2[C@@H]3CCC4=CC(=O)C=C[C@]4(C)[C@@]3(F)[C@@H](O)C[C@]2(C)[C@@]1(O)C(=O)CO,Potency,[3],inactive
NC(=O)N1c2ccccc2CC(=O)c2ccccc21,Potency,[1],inactive
same,Potency,[2],inactive
same,Potency,[3],inactive
